Experimental findings from patent publication US20110182831A1 (priority 2010, published 2011) are described below.

The conditions of the series: pH 3.

Turning to `CN1CCCC1c1cccnc1.O=C(O)C(O)C(O)C(=O)O` (centres unmarked) [Nicotine Bitartrate, nicotine bitartrate], the “nicotine concentration on storage” value is listed as “unaltered” and the “no loss of nicotine into the polymeric dosage form materials, comparison of salts” value is listed as “better”.
